Measurements: patent US12152019B2, “Arylalkyl pyrazole compounds as indoleamine 2,3-dioxygenase inhibitors” (Merck Sharp & Dohme LLC, priority 2018, dated 2024)

The chains behind the UniProt entries cited, without tags or fusion partners.
UniProt P14902, whole entry: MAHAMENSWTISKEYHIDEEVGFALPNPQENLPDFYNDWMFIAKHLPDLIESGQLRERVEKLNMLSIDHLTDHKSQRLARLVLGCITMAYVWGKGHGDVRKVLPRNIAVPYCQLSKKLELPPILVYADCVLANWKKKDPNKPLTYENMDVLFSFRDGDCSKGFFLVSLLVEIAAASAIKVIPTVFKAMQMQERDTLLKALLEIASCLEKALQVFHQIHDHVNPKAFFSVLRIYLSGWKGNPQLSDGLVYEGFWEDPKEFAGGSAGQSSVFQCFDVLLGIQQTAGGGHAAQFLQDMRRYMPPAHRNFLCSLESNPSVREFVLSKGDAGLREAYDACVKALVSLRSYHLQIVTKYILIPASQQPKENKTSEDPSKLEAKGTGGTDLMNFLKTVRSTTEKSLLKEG

Target: IDO1 (Homo sapiens, UniProt P14902)
Assay: IDO1 Cellular Assay in HeLa Cells Stimulated with IFNγ
Format: cell-based
Conditions: HeLa cells stimulated with IFNγ 100 ng/mL, 300 uM L-tryptophan, about 48 hours, fluorescence readout; read-out: HeLa Cell Potency, IC50

| IC50 | Structure (SMILES) |
| --- | --- |
| 0.103 µM | Cc1cccc(N2CCC(C(O)Cn3nc(C(=O)N4C[C@@H](C)O[C@@H](C)C4)c4c3CCC4)CC2)c1C (single isomer, unassigned) [Example 43] |
| 0.0135 µM | Cc1cccc(N2CCC(C(O)Cn3nc(C(=O)N4C[C@@H](C)O[C@@H](C)C4)c4c3CCC4)CC2)c1C (single isomer, unassigned) [Example 44] |
| 1.19 µM | COC(Cn1nc(C(=O)N2C[C@@H](C)O[C@@H](C)C2)c2c1CCC2)C1CCN(c2cccc(C)c2C)CC1 (single isomer, unassigned) [Example 45] |
| 0.0667 µM | COC(Cn1nc(C(=O)N2C[C@@H](C)O[C@@H](C)C2)c2c1CCC2)C1CCN(c2cccc(C)c2C)CC1 (single isomer, unassigned) [Example 46] |
| 0.0736 µM | Cc1cccc(N2CCC(C(F)Cn3nc(C(=O)N4C[C@@H](C)O[C@@H](C)C4)c4c3CCC4)CC2)c1C (single isomer, unassigned) [Example 47] |
| 0.00813 µM | Cc1cccc(N2CCC(C(F)Cn3nc(C(=O)N4C[C@@H](C)O[C@@H](C)C4)c4c3CCC4)CC2)c1C (single isomer, unassigned) [Example 48] |
| 0.00357 µM | Cc1c(F)ccc(C2CCC(CCn3nc(C(=O)N4CCN(C(=O)CO)CC4)c4c3CCC4)CC2)c1C (single isomer, unassigned) [Example 49, 1-(4-(1-(2-(4-(4-fluoro-2,3-dimethylphenyl)cyclohexyl)ethyl)-1,4,5,6-tetrahydrocyclopenta[c]pyrazole-3-carbonyl)piperazin-1-yl)-2-hydroxyethan-1-one] |
| 0.0423 µM | Cc1c(F)ccc(C2CCC(CCn3nc(C(=O)N4CCN(C(=O)CO)CC4)c4c3CCC4)CC2)c1C (single isomer, unassigned) [Example 50, 1-(4-(1-(2-(4-(4-fluoro-2,3-dimethylphenyl)cyclohexyl)ethyl)-1,4,5,6-tetrahydrocyclopenta[c]pyrazole-3-carbonyl)piperazin-1-yl)-2-hydroxyethan-1-one] |
| 0.0938 µM | Cc1c(F)ccc(C2CCC(CCn3nc(C(=O)N4CCC(F)(CO)CC4)c4c3CCC4)CC2)c1C (single isomer, unassigned) [Example 51, (1-(2-(4-(4-fluoro-2,3-dimethylphenyl)cyclohexyl)ethyl)-1,4,5,6-tetrahydrocyclopenta[c]pyrazol-3-yl)(4-fluoro-4-(hydroxymethyl)piperidin-1-yl)methanone] |
| 0.00299 µM | Cc1c(F)ccc(C2CCC(CCn3nc(C(=O)N4CCC(F)(CO)CC4)c4c3CCC4)CC2)c1C (single isomer, unassigned) [Example 52, (1-(2-(4-(4-fluoro-2,3-dimethylphenyl)cyclohexyl)ethyl)-1,4,5,6-tetrahydrocyclopenta[c]pyrazol-3-yl)(4-fluoro-4-(hydroxymethyl)piperidin-1-yl)methanone] |
| 0.0683 µM | Cc1c(Cl)cccc1OC1CCC(Cn2nc(C(=O)N3C[C@@H](C)O[C@@H](C)C3)c3c2CCC3)CC1 (single isomer, unassigned) [Example 55] |
| 0.0212 µM | Cc1c(Cl)cccc1OC1CCC(Cn2nc(C(=O)N3C[C@@H](C)O[C@@H](C)C3)c3c2CCC3)CC1 (single isomer, unassigned) [Example 56] |
| 0.00213 µM | Cc1cccc(C2CCC(CCn3nc(C(=O)N4CCC(O)CC4)c4c3CCC4)CC2)c1C (single isomer, unassigned) [Example 95, (1-(2-(4-(2,3-dimethylphenyl)cyclohexyl)ethyl)-1,4,5,6-tetrahydrocyclopenta[c]pyrazol-3-yl)(4-hydroxypiperidin-1-yl)methanone] |
| 0.00262 µM | Cc1cccc(C2CCC(CCn3nc(C(=O)N4CCC(O)CC4)c4c3CCC4)CC2)c1C (single isomer, unassigned) [Example 96, (1-(2-(4-(2,3-dimethylphenyl)cyclohexyl)ethyl)-1,4,5,6-tetrahydrocyclopenta[c]pyrazol-3-yl)(4-hydroxypiperidin-1-yl)methanone] |
| 0.0246 µM | Cc1c(F)ccc(N2CCC(CCn3nc(C(=O)N4CC[C@@H](O)[C@@H](F)C4)c4c3CCC4)CC2)c1C (stereo in doubt) [Example 13, [1-[2-[1-(4-fluoro-2,3-dimethyl-phenyl)piperidin-1-ium-4-yl]ethyl]-5,6-dihydro-4H-cyclopenta[c]pyrazol-3-yl]-(3-fluoro-4-hydroxy-1-piperidyl)methanone] |
| 0.0297 µM | Cc1c(Cl)cccc1N1CCC(CCn2nc(C(=O)N3CC[C@@H](O)[C@@H](F)C3)c3c2CCC3)CC1 (stereo in doubt) [Example 14, [1-[2-[1-(3-chloro-2-methyl-phenyl)piperidin-1-ium-4-yl]ethyl]-5,6-dihydro-4H-cyclopenta[c]pyrazol-3-yl]-(3-fluoro-4-hydroxy-1-piperidyl)methanone] |

| IC50 | Structure (SMILES) |
| --- | --- |
| 0.0122 µM | Cc1cccc(N2CCC(CCn3nc(C(=O)N4CCC(O)CC4)c4c3CCC4)CC2)c1C [Example 1, (1-(2-(1-(2,3-dimethylphenyl)piperidin-4-yl)ethyl)-1,4,5,6-tetrahydrocyclopenta[c]pyrazol-3-yl)(4-hydroxypiperidin-1-yl)methanone] |
| 0.0327 µM | O=C(c1nn(CCC2CCN(c3cccc(F)c3)CC2)c2c1CCC2)N1CCC(O)CC1 [Example 2, [1-[2-[1-(3-fluorophenyl)piperidin-1-ium-4-yl]ethyl]-5,6-dihydro-4H-cyclopenta[c]pyrazol-3-yl]-(4-hydroxy-1-piperidyl)methanone] |
| 0.0377 µM | Cc1c(Cl)cccc1N1CCC(CCn2nc(C(=O)N3CCC(O)CC3)c3c2CCC3)CC1 [Example 3, [1-[2-[1-(3-chloro-2-methyl-phenyl)piperidin-1-ium-4-yl]ethyl]-5,6-dihydro-4H-cyclopenta[c]pyrazol-3-yl]-(4-hydroxy-1-piperidyl)methanone] |
| 0.0673 µM | O=C(c1nn(CCC2CCN(c3cccc(C(F)(F)F)c3)CC2)c2c1CCC2)N1CCC(O)CC1 [Example 4, (4-hydroxy-1-piperidyl)-[1-[2-[1-[3-(trifluoromethyl)phenyl]-4-piperidyl]ethyl]-5,6-dihydro-4H-cyclopenta[c]pyrazol-3-yl]methanone] |
| 0.0938 µM | O=C(c1nn(CCC2CCN(c3cccc(F)c3F)CC2)c2c1CCC2)N1CCC(O)CC1 [Example 5, [1-[2-[1-(2,3-difluorophenyl)piperidin-1-ium-4-yl]ethyl]-5,6-dihydro-4H-cyclopenta[c]pyrazol-3-yl]-(4-hydroxy-1-piperidyl)methanone] |
| 0.111 µM | O=C(c1nn(CCC2CCN(c3ccnc4ccc(F)cc34)CC2)c2c1CCC2)N1CCC(O)CC1 [Example 6, [1-[2-[1-(6-fluoroquinolin-1-ium-4-yl)-4-piperidyl]ethyl]-5,6-dihydro-4H-cyclopenta[c]pyrazol-3-yl]-(4-hydroxy-1-piperidyl)methanone] |
| 0.125 µM | O=C(c1nn(CCC2CCN(c3ccncc3C(F)(F)F)CC2)c2c1CCC2)N1CCC(O)CC1 [Example 7, (4-hydroxy-1-piperidyl)-[1-[2-[1-[3-(trifluoromethyl)pyridin-1-ium-4-yl]-4-piperidyl]ethyl]-5,6-dihydro-4H-cyclopenta[c]pyrazol-3-yl]methanone] |
| 0.00435 µM | Cc1c(F)ccc(N2CCC(CCn3nc(C(=O)N4CCC(F)(CO)CC4)c4c3CCC4)CC2)c1C [Example 8, (1-(2-(1-(4-fluoro-2,3-dimethylphenyl)piperidin-4-yl)ethyl)-1,4,5,6-tetrahydrocyclopenta[c]pyrazol-3-yl)(4-fluoro-4-(hydroxymethyl)piperidin-1-yl)methanone] |
| 0.00839 µM | Cc1c(F)ccc(N2CCC(CCn3nc(C(=O)N4CCC(O)(CF)CC4)c4c3CCC4)CC2)c1C [Example 9, [1-[2-[1-(4-fluoro-2,3-dimethyl-phenyl)piperidin-1-ium-4-yl]ethyl]-5,6-dihydro-4H-cyclopenta[c]pyrazol-3-yl]-[4-(fluoromethyl)-4-hydroxy-1-piperidyl]methanone] |
| 0.00865 µM | Cc1c(Cl)cccc1N1CCC(CCn2nc(C(=O)N3CCC(F)(CO)CC3)c3c2CCC3)CC1 [Example 10, [1-[2-[1-(3-chloro-2-methyl-phenyl)piperidin-1-ium-4-yl]ethyl]-5,6-dihydro-4H-cyclopenta[c]pyrazol-3-yl]-[4-fluoro-4-(hydroxymethyl)-1-piperidyl]methanone] |
| 0.012 µM | Cc1c(F)ccc(N2CCC(CCn3nc(C(=O)N4CCN(C(=O)CO)CC4)c4c3CCC4)CC2)c1C [Example 11, 1-[4-[1-[2-[1-(4-fluoro-2,3-dimethyl-phenyl)piperidin-1-ium-4-yl]ethyl]-5,6-dihydro-4H-cyclopenta[c]pyrazole-3-carbonyl]piperazin-1-yl]-2-hydroxy-ethanone] |
| 0.0167 µM | Cc1c(Cl)cccc1N1CCC(CCn2nc(C(=O)N3CCN(C(=O)CO)CC3)c3c2CCC3)CC1 [Example 12, 1-[4-[1-[2-[1-(3-chloro-2-methyl-phenyl)piperidin-1-ium-4-yl]ethyl]-5,6-dihydro-4H-cyclopenta[c]pyrazole-3-carbonyl]piperazin-1-yl]-2-hydroxy-ethanone] |
| 0.0316 µM | Cc1c(Cl)cccc1N1CCC(CCn2nc(C(=O)N3CCC(O)(CF)CC3)c3c2CCC3)CC1 [Example 15] |
| 0.00233 µM | CC(=O)NC1CCN(C(=O)c2nn(CCC3CCN(c4ccccc4C(F)(F)F)CC3)c3c2CCCC3)CC1 [Example 16, N-(1-(1-(2-(1-(2-(trifluoromethyl)phenyl)piperidin-4-yl)ethyl)-4,5,6,7-tetrahydro-1H-indazole-3-carbonyl)piperidin-4-yl)acetamide] |
| 0.00144 µM | CC(=O)NC1CCN(C(=O)c2nn(CCC3CCN(c4cccc(F)c4C)CC3)c3c2CCCC3)CC1 [Example 17, N-[1-[1-[2-[1-(3-fluoro-2-methyl-phenyl)-4-piperidyl]ethyl]-4,5,6,7-tetrahydroindazole-3-carbonyl]-4-piperidyl]acetamide] |
| 0.00152 µM | CC(=O)NC1CCN(C(=O)c2nn(CCC3CCN(c4ccc(F)c(F)c4C)CC3)c3c2CCCC3)CC1 [Example 18, N-[1-[1-[2-[1-(3,4-difluoro-2-methyl-phenyl)-4-piperidyl]ethyl]-4,5,6,7-tetrahydroindazole-3-carbonyl]-4-piperidyl]acetamide] |
